Measurements from article PMC11241769, “Comprehensive Characterization of Phytochemical Composition, Membrane Permeability, and Antiproliferative Activity of Juglans nigra Polyphenols” (International Journal of Molecular Sciences, 2024).

What was measured:
[1] = PAMPA-BBB (parallel artificial membrane permeability assay, porcine polar brain lipid extract); format: in vitro ADME; conditions: donor pH 7.4, acceptor pH 7.4, 37 °C, 4 h; n.d. = not detected in the acceptor phase
Experimental: (§1) For the PAMPA-BBB test, 5 μL of porcine polar brain lipid extract (PBLE) solution (16.0 mg PBLE + 8.0 mg cholesterol dissolved in 600.0 μL n-dodecane) was applied for each well of the 96-well polycarbonate-based filter donor plates (top plate) (Multiscreen™-IP, MAIPN4510, pore size 0.45 μm; Merck). For the PAMPA-GI assay, the wells of the top plate were coated with 5 μL of the mixture of 16.0 mg phosphatidylcholine + 8.0 mg cholesterol dissolved in 600.0 μL n-dodecane. A measure of 150.0 μL of aliquots of the filtrated donor solutions were placed on the membrane. The 96-well PTFE acceptor plates (bottom plates) (Multiscreen Acceptor Plate, MSSACCEPTOR; Merck), were filled with 300.0 μL buffer solution (0.01 M PBS buffer, pH 7.4). The donor plate was placed upon the acceptor plate, and both plates were incubated together at 37 °C for 4 h in a Heidolph Titramax 1000 Vibrating platform shaker (Heidolph, Schwabach, Germany).
(§2) After incubation, sandwich plates were separated and the concentrations of each compound in the starting donor solution and in the acceptor and donor wells were determined in triplicate by UHPLC-DAD method described above. […]
(§3) All experiments were performed in three triplicates on three consecutive days (n = 9), caffeine standard was used as positive, while rutin as negative control. ClogP values were calculated by ChemAxon Marvin 22.3.

[2] = PAMPA-GI (parallel artificial membrane permeability assay, phosphatidylcholine membrane); format: in vitro ADME; conditions: donor pH 6.8, acceptor pH 7.4, 37 °C, 4 h; n.d. = not detected in the acceptor phase
Experimental: as §1, §2, §3

[3] = chemical stability in the aqueous solutions/buffer of the PAMPA experiments (UHPLC-DAD); conditions: 4 h incubation at 37 °C
Experimental: Quantities of the isolated compounds in the PAMPA experiments (14, 58, 74, 86, 92, 106, 141, and 143) were determined by UHPLC-DAD. The Juglans extracts were analyzed by an ACQUITY UPLC H-Class PLUS System equipped with a quaternary solvent delivery pump (QSM), an auto-sampler manager (FTN), a column compartment (CM), and a photodiode array (PDA) detector (Waters Corporation). An Acquity BEH C18 column (100 × 2.1 mm i.d., 1.7 µm; Waters Corporation) maintained at 30 °C was used as stationary phase. Eluent A was 0.3% acetic acid in water and eluent B was acetonitrile, the following gradient elution was applied (flow rate: 0.3 mL/min): 5.0–100.0% B (0.0–11.0 min), 100.0–5.0% B (11.0–11.5 min), 5% B (11.5–15.0 min). The injection volume was 5 µL and chromatograms were recorded at 200–400 nm. The chromatograms acquired at the UV absorption maxima of each compound were used for data evaluation.
Stock solutions (10 mM in methanol) were diluted with the defined buffer (pH 7.4 for the PAMPA-BBB and pH 6.8 for the PAMPA-GI assays) to obtain the donor solutions (composition: 594.0 μL buffer + 6.0 μL stock solution). […]

## myricetin-3-O-rhamnoside (myricitrin) [Compound 86]
[1]
  logPe PAMPA-BBB (n = 9): not detected in the acceptor phase
[2]
  logPe PAMPA-GI (n = 9): not detected in the acceptor phase
[3]
  degradation in the pH 7.4 buffer: significant degree of degradation
